Results reported in patent publication US8497349B2, “Use of multivalent synthetic ligands of surface nucleolin for treating cancer or inflammation” (Centre National de la Recherche Scientifique (CNRS), priority 2006, dated 2013).

By UniProt entry, the sequences of proteins in these tests, tags left out. Residues count along the entry.
UniProt P19338, 644-710: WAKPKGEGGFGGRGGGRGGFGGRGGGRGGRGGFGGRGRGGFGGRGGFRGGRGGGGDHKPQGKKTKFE
UniProt P19338, 2-308: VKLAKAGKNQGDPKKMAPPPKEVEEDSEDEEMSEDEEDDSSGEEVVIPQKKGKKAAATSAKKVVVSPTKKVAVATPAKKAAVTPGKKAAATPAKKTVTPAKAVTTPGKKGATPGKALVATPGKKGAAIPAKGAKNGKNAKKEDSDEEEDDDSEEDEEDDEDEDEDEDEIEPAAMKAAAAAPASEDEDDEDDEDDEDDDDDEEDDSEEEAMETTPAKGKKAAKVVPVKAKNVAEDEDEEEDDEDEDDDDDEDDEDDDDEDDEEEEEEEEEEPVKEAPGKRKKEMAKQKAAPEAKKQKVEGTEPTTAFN
UniProt P19338, 2-710: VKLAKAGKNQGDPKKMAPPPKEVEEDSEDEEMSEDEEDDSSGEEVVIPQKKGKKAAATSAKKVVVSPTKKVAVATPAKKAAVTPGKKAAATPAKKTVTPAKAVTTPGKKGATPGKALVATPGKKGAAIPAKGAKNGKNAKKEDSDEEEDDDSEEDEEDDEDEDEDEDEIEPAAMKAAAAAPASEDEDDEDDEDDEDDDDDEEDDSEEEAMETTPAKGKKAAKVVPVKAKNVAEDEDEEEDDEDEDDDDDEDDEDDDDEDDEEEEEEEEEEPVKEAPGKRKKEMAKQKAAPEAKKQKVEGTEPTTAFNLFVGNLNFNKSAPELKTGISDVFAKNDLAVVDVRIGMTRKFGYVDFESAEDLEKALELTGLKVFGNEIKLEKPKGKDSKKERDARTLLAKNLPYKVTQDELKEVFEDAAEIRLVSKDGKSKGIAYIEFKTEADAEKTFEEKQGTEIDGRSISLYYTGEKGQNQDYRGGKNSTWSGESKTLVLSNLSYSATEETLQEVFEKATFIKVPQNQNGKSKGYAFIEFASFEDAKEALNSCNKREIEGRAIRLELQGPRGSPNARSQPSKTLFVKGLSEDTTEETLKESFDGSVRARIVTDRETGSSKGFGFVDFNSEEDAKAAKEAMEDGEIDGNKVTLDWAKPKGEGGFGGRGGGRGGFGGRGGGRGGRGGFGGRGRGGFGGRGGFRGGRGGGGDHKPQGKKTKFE
UniProt P19338, 309-710: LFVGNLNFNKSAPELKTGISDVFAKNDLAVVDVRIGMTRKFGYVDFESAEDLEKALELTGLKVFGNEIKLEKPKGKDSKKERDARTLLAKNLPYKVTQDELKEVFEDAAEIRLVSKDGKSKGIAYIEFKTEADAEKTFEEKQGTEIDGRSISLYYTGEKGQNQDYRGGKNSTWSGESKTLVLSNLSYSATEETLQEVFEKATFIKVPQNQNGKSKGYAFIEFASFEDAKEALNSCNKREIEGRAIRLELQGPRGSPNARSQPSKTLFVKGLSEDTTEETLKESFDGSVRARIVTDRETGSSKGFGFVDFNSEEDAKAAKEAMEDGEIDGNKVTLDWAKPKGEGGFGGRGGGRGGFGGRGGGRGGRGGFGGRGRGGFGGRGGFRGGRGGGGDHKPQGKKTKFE

Experiments:
NIH-3T3 cells = assay: Proliferation of NIH-3T3 cells stimulated by 5% foetal calf serum (tritiated thymidine incorporation); format: cell-based; conditions: 0.5 μM; 5% foetal calf serum
Experimental: FIG. 5. Effect of HB-19 on the proliferation of NIH-3T3 cells stimulated by 0.2 nM FGF-2 (A) or by 5% foetal calf serum (B). Quiescent NIH-3T3 cells are stimulated by FGF-2 or by 5% serum in the presence or not of HB19 at the concentrations indicated. After 24 hours of incubation, cell proliferation was determined by measuring the incorporation of tritiated thymidine. The results are given as a percentage with respect to the control stimulated by HARP (100%). MSD (threshold), (**p<0.01 and ***p<0.001).
FIG. 14. Effect of NUCANT 3, 6 and 7 on the proliferation of NIH-3T3 cells stimulated by 5% FCS. NIH-3T3 cells are made quiescent by serum deprivation are stimulated by 5% FCS in the presence or not of various NUCANT 3, 6 and 7 concentrations ranging from 0.125 to 2 μM. After 24 hours of incubation, cell proliferation was determined by measuring the incorporation of tritiated thymidine. The results are given as a percentage with respect to the control cells stimulated by 5% FCS. ID50 is indicated by the dotted line.
The effect of Nucant 3 on the proliferation of NIH-3T3 cells treated by 5% of FCS was also compared to that of compound HB-19. NIH-3T3 cells made quiescent by serum deprivation were stimulated by 5 FCS in the presence or not of different concentrations of NUCANT 3, 6 or 7 ranging from 0.125 to 2 μM. After 24 hours in incubation, cell proliferation is determined by measuring the incorporation of tritiated thymidine as described earlier.
The effect of hexavalent compounds Nucant 6 and Nucant 7 on the proliferation of NIH-3T3 cells triggered by 5% FCS was compared with that of pentavalent compound HB-19. NIH-3T3 cells made quiescent by serum deprivation stimulated by 5% FCS in the presence of various concentrations of NUCANT 3, 6 or 7 ranging from 0.125 to 2 μM. After 24 hours of incubation, cell proliferation was determined by measuring the incorporation of tritiated thymidine as described above.

human nucleolin = target: T1, human nucleolin (Homo sapiens, UniProt P19338); assay: Binding of biotinylated HB19 to nucleolin constructions (avidine-agarose purification)
T1 construct: whole nucleolin and the N- and C-terminal parts contain amino acids 1-707, 1-308 and 309-707 respectively; made in house; host or cells: in vitro transcription/translation in rabbit reticulocyte lysates
From the text: FIG. 1. A. Structure of nucleolin protein. Human nucleolin consists of 707 amino acids. Nucleolin can be broken down into two main parts: (3,4): N-terminal (aa 1-308) and C-terminal (309-706). The N-terminal domain consists of 4 long acid domains, consisting of an uninterrupted repetition of glutamic acid and aspartic acid (A1, A2, A3, A4). The C-terminal domain, consisting of alternating hydrophobic and hydrophilic regions forming 4 areas of binding to RNA called RBDs (for <<RNA Binding Domains>>: I, II, III, IV) and its extremity (aa 644-707) carries the highly basic RGG domain comprised of Arg-Gly-Gly repetitions. B. Identification of the binding domain of compound HB19 to nucleolin: the RGG domain. Nucleolin constructions corresponding to the N- and C-terminal areas were obtained by in vitro transcription/translation in a system using rabbit reticulocyte lysates. Thus, whole nucleolin and the N- and C-terminal parts contain amino acids 1-707, 1-308 and 309-707 respectively labelled with [^35S] Met/Cys were produced. The labelled crude product was then incubated with biotinylated HB19 and the complexes were purified on an avidine-agarose column. As expected, whole nucleolin interacts with HB19. […] The first construction corresponds to cDNA coding for the C-terminal part of human nucleolin including the 4 RBDs and the RGG domain, in fusion with GST protein (Glutathione S-Transferase) to allow detection with anti-GST antibodies. The other constructions, also in fusion with GST, correspond to this same part but one or more domains shorter. All these proteins are produced by E. coli. The capacity of HB19 to interact with each construction was tested by incubating crude bacterial extracts, expressing different nucleolin constructions, with biotinylated HB19 which was then purified by fixing to Avidine-agarose.

IL-6 = IL-6 production by primary peritoneal murine macrophages stimulated by LPS (ELISA); format: cell-based, mouse; conditions: 4 μM of HB-19; LPS 100 and 1000 ng/ml; base level taken into account
Experimental: FIG. 19. Inhibition by HB-19 of the production of TNF-α and IL-6 by primary peritoneal murine macrophages stimulated by various LPS preparations. Peritoneal murine macrophages in the absence (−) or presence (+) of 4 μM of HB-19 were either not stimulated (B4 0) or stimulated with LPS from Escherichia coli type 0111:B4 at 100 ng/ml (B4 100) and 1000 ng/ml (B4 1000). Cell cultures were incubated at 37° C. in an incubator with 5% CO2 for 20 hours and levels of TNF-α (A) and IL-6 (B) were measured by ELISA.
FIG. 20. Inhibition by Nucant 7 of the production of TNF-α and IL-6 by primary peritoneal murine macrophages stimulated by various LPS. Peritoneal murine macrophages in the absence (−) or presence (+) of 10 μM of Nucant 7 were either not stimulated (−) or stimulated (+) with LPS from Escherichia coli type 0111:B4 at 10 ng/ml, 100 ng/ml and 1000 ng/ml. Cell cultures were incubated at 37° C. in an incubator with 5% CO2 for 20 hours and levels of TNF-α (A) and IL-6 (B) were measured by ELISA. […]
Macrophages, in the absence (−) or presence (+) of 4 μM HB-19 or 10 μM Nucant 7, were either non-stimulated or stimulated with LPS from Escherichia Coli serotype 0111:B4 at 10 ng/ml, 100 ng/ml and 1000 ng/ml. […] TNF-α and IL-6 protein levels were measured by ELISA.

SMILES: CCCC[C@H](NC(=O)[C@H](CCCCNC(=O)[C@H](CCCNC(=N)N)NC(=O)[C@@H]1CCCN1C[C@@H](N)CCCCN)NC(=O)[C@H](CCC(=O)O)NC(=O)[C@H](CCCCNC(=O)[C@H](CCCNC(=N)N)NC(=O)[C@@H]1CCCN1C[C@@H](N)CCCCN)NC(=O)[C@@H]1CCCN1C(=O)CNC(=O)[C@H](CCCCNC(=O)[C@H](CCCNC(=N)N)NC(=O)[C@@H]1CCCN1C[C@@H](N)CCCCN)NC(=O)[C@H](CCCCN)NC(=O)[C@H](CCCCNC(=O)[C@H](CCCNC(=N)N)NC(=O)[C@@H]1CCCN1C[C@@H](N)CCCCN)NC(=O)[C@H](CCCNC(=N)N)NC(=O)[C@@H]1CCCN1C[C@@H](N)CCCCN)C(N)=O [HB19, 5[Kpsi(CH2N)PR]-TASP]
- inhibition of proliferation of cells stimulated by foetal calf serum (NIH-3T3 cells): capable of inhibiting
- half-life (In vivo half life): > 1440 min
- interaction with RGG domain alone (human nucleolin; GST fusion constructions produced by E. coli): enough for this interaction
- interaction with N-terminal part of nucleolin (human nucleolin; amino acids 1-308): does not interact at all
- interaction with whole nucleolin (human nucleolin; amino acids 1-707, [35S] labelled): interacts
- interaction with C-terminal part of nucleolin (human nucleolin; amino acids 309-707): contains the target
- net degree of inhibition of IL-6 production (IL-6): 68-71%
